## Measured affinities in a library of Ab-14 light chain variants

Antigen: PDVDLGDISGINAS, a 14-residue peptide of the SARS-CoV-2 spike HR2 region.

Each scFv is VH, the linker GGGGSGGGGSGGGGS, VL, as in the parent Ab-14, and differs from it in the CDRs of the light chain only.
VH: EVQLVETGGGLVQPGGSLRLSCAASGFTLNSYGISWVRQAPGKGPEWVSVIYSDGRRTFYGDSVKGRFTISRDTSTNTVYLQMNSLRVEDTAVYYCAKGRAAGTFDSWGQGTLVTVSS
VL: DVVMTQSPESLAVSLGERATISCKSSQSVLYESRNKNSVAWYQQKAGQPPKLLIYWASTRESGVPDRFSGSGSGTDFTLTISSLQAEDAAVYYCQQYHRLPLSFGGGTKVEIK

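This is the validation round: designs drawn from the data on random variants, tested in the same kind of assay. Several design methods are mixed in this list. Affinity was read by AlphaSeq, a pooled yeast mating assay with surface-displayed partners. Mating (16 h, 30 °C) was followed by selection of diploids and sequencing of their barcodes. Scores were corrected for input abundance and mapped to Kd with protein pairs of known affinity run in the same pool. Mating was done six times.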

Each variant is given by its three light chain CDRs, as the data file delimits them; those of the parent are KSSQSVLYESRNKNSVA, WASTRES, QQYHRLPLS.
The Kd shown is the geometric mean over detected replicates; a lower Kd is a better binder.
A pair that was not seen in any replicate is written "no signal"; this usually means weak binding, but a binder can also be missed.

| CDR-L1 | CDR-L2 | CDR-L3 | Kd | detected | signal with controls |
|---|---|---|---|---|---|
| TISQMSTLFSQTINNVA | EVSTREQ | QQYDRLPLV | 70 nM | 4 of 6 | 1 of 18 |
| KYSQSVLYESNNKNSVA | WASTRES | QQYDRLALS | no signal | 0 of 6 | 0 of 18 |
| TISMHTSLFSQTINNVA | EVSTREQ | QQYDRLPLT | 1.3 nM | 6 of 6 | 1 of 18 |
| KSSHSVKYESRNKNSVA | WASTRES | QQYARLHLS | no signal | 0 of 6 | 0 of 18 |
| KSSQSWLYESRNKNSQA | GRSTRES | QQYHRLPLS | 500 pM | 6 of 6 | 0 of 18 |
| QLNEYKHETMAKTQNIA | DMTIREP | QQYAHLPLA | 830 pM | 6 of 6 | 0 of 18 |
| KLSQSVLYESRNKWSVA | EASTRES | QQYHRLPLS | 1.1 nM | 6 of 6 | 2 of 18 |
| KLSTGTYGLTGHTSNVA | HDEMRWE | QQYHKLPLI | 110 nM | 6 of 6 | 2 of 18 |
| TISQSAQMESHNKDSVA | DLNVRGS | QQYDRLPLS | 6.2 nM | 6 of 6 | 1 of 18 |
| KSSQSVGYESRNPNSVA | WASTREV | QQYHRLPLS | 15 nM | 6 of 6 | 1 of 18 |
| KLSQSVGYESRMVNNVA | NASTRED | QQYHRLPLS | 730 pM | 6 of 6 | 2 of 18 |
| TLTQTVGMESHNKNSVA | DLSTRGS | QQYHRLPLS | 4.3 nM | 6 of 6 | 1 of 18 |
| KIMQSLNYQQFNVSNVA | GQETRER | QSYHRLPLS | 43 nM | 6 of 6 | 1 of 18 |
| KLTTVTGTEKVKGNNVA | EMETRER | QQYNRLPLA | 650 pM | 6 of 6 | 1 of 18 |
| KSSQSVPYESRNKNSVA | WASTRES | QQYHRLPLS | 56 nM | 5 of 6 | 0 of 18 |
| MISEVMNTLTRHGNNVA | DLSERED | QQYFRLPLS | no signal | 0 of 6 | 0 of 18 |
| TSSQSVLYESRNKNSVA | WASERMS | QQYHRLPLS | 77 nM | 6 of 6 | 1 of 18 |
| KMSQSVLYESRNKNNVA | DASQRES | QQYHRLPLS | 320 pM | 6 of 6 | 1 of 18 |
| KSPQSVLYESRNKNSVA | NASTRES | QQYHRLPLS | 4.0 nM | 6 of 6 | 1 of 18 |
| KSSQSDHYESRNKNSVA | GASTRES | QQYHRLPLS | 730 pM | 6 of 6 | 1 of 18 |
| KMSMSWMQLERNKNSVA | QASQREQ | QQYHRLPLS | 900 pM | 6 of 6 | 0 of 18 |
| KSQQSVLYESRNKNNVA | HASTRED | QQYWRLPLS | 540 pM | 6 of 6 | 1 of 18 |
| KISQMARVGSTHGNSIA | EETTRAK | QQYHRLPLF | 3.2 nM | 6 of 6 | 0 of 18 |
| TLSDLMHMESRNYNSVA | DLVKRES | QQYHRLPLS | 1.9 nM | 6 of 6 | 0 of 18 |
| KSSISYLYESRNKNSVA | EASTRES | QQYHRLPLM | 490 pM | 6 of 6 | 0 of 18 |
| NLNDSDMYAQQMTDNIA | QDTQRNE | QQYAKLPLS | 38 nM | 6 of 6 | 0 of 18 |
| KLSQSVMYEDRNKNSVA | NASTRES | QQYHRLPLS | 38 nM | 6 of 6 | 1 of 18 |
| KSSQSVLYESRNKNSVA | HASTREV | QQYHRLPLS | 5.5 nM | 6 of 6 | 1 of 18 |
| KMSQSVLVSSRNKNSVA | WASTRES | QQYHRLPLS | 10 nM | 4 of 6 | 0 of 18 |
| KFSQSVLYESRVSNSVA | NASTRES | QQYHRLPLS | 760 pM | 6 of 6 | 0 of 18 |
| QLHAYTQGFKRADASIA | EISYRAI | QQYGRLPLS | 150 nM | 1 of 6 | 1 of 18 |
| GSMQSVLYEMRNKNSVA | RASTRES | QQYHRLPLS | 22 nM | 1 of 6 | 1 of 18 |
| KSSQSVLYESRNKNNVA | WASTRPS | QQYMRLPLS | 63 nM | 6 of 6 | 2 of 18 |
| KIGSMTNGEKFHSNSVA | QTSTREE | QQYHRLPLS | 2.7 nM | 6 of 6 | 2 of 18 |
| HMSMLTLMGSRQRNSVA | QMTTREN | QQYDRLPLT | 110 nM | 6 of 6 | 2 of 18 |
| NFRQMVLTGSTLKNSVA | HASTREE | QQYHRLPLI | 3.5 nM | 6 of 6 | 1 of 18 |
| KLSQSVLYESRNKNNVA | AASTRES | QQYHRLPLS | 290 pM | 6 of 6 | 1 of 18 |
| KSSQSVLYESRNMNSVA | AASTRES | SQYHRLPLS | 26 nM | 6 of 6 | 1 of 18 |
| KLQQGYWYESRNKNSVA | WASTREV | QQYHRLPLS | 30 nM | 6 of 6 | 1 of 18 |
| HVSSMLMAGGGIYNSIA | GTKVLER | QQYMRLPLM | 2.2 nM | 6 of 6 | 0 of 18 |
| KLSATYRYESENKNSIA | EMTTRES | QCYHRLPLS | 200 nM | 4 of 6 | 0 of 18 |
| KLQQSMLYESRNKNSVA | HASTRLS | QQYHRLPLS | 2.4 nM | 6 of 6 | 4 of 18 |
| HLEQSSLYEQRNKNSVA | NASQRCS | QQYHRLPLS | 940 pM | 6 of 6 | 0 of 18 |
| KFEQSQLYESRNKNSVA | NASTRED | QQYHRLPLS | 460 pM | 6 of 6 | 1 of 18 |
| KAMWSWLYWSRNKNSVA | NASQREH | QQYHRLPLS | 2.6 nM | 6 of 6 | 0 of 18 |
| KVSFSYLLESRNKNSVA | SASTRES | QQYHRLPLS | 1.3 nM | 6 of 6 | 0 of 18 |
| HISGFMKSLSAHMNNVA | DMTNRED | QQYDRLPLS | 2.0 nM | 6 of 6 | 1 of 18 |
| KSSPSVLYESRNKNNVA | NASTRES | QQYHRLPLS | 3.4 nM | 6 of 6 | 1 of 18 |
| MISDLTYYGSRNVNSVA | DLSTRGS | QQYDRLPLS | 6.1 nM | 6 of 6 | 0 of 18 |
| KVSQSVLYENDNKNSVA | AASTRED | QQYHRLPLS | 1.1 nM | 6 of 6 | 0 of 18 |
| KSSQSVLYESRNKNSVA | WASERES | QQYHQLPLS | 15 nM | 5 of 6 | 1 of 18 |
| KSSQSVLYESDNKNSVA | AASKRES | FQYHPLPLS | 100 nM | 1 of 6 | 0 of 18 |
| KSLWSVLLESNNKNSVA | HASTRED | QQYHRLPLS | 6.9 nM | 6 of 6 | 0 of 18 |
| KSSQSVLYESRNKNSVA | WASWRES | QQYHRLPLS | no signal | 0 of 6 | 0 of 18 |
| KLQQSVLYESRNKNNVA | AASTRES | QQYHRLPLS | 1.1 nM | 6 of 6 | 1 of 18 |
| KISQMVRVGSTHSNSIA | EEATRAK | QQYYRLPLA | 5.0 nM | 6 of 6 | 0 of 18 |
| HITAALAGLTGQMNSIA | ASSARCA | QQYYQLPLT | 7.9 nM | 6 of 6 | 1 of 18 |
| SISGFMKSLAAHANSVA | DMTNRED | QQYNRLPLS | 1.0 nM | 6 of 6 | 0 of 18 |
| KFSQSELYESRNKNSVA | NASQRLS | QQYHRLPLS | 750 pM | 6 of 6 | 0 of 18 |
| KMSQSWLYESRNSNSVA | EASTRLS | QQYHRLPLS | 1.5 nM | 6 of 6 | 2 of 18 |
| LLQGSEGYESRNKNSVA | DASTRES | QAYHRLPLS | 1.3 nM | 6 of 6 | 1 of 18 |
| ALELEEMQMMKDINSIA | NTEYKTR | QQYFRLPIS | 19 nM | 6 of 6 | 0 of 18 |
| KSMPSVLYESRNKNSVA | TDSTRES | QQYHRLPLS | no signal | 0 of 6 | 0 of 18 |
| KISQMYRYEQQNSSSIA | EANTRQQ | QSYHRLPLS | 640 nM | 6 of 6 | 2 of 18 |
| KSSQSGLYESRNKSSGA | WASTREM | QQYHRLPGS | no signal | 0 of 6 | 0 of 18 |
| MFSQLTYTGARTRNAVA | QASTREN | QQYHHLPLS | 3.8 nM | 6 of 6 | 1 of 18 |
| KLSQSQLYESRNKNSVA | GASTRES | QQYHRLPLS | 440 pM | 6 of 6 | 0 of 18 |
| KSSQSVWYESRNKNSVA | WASTREE | QQYHRLPLS | 81 nM | 5 of 6 | 0 of 18 |
| MISQVMNTLTRNGNNVA | DLQNRED | QQYFRLPLS | 5.8 nM | 6 of 6 | 0 of 18 |
| TISQMSQTFSQTINNVA | EVSTRLN | QQYDRLPLA | 7.1 nM | 6 of 6 | 4 of 18 |
| KFSQSVLYESRTKNKVA | NASTRES | QQYHRLPLS | 9.3 nM | 6 of 6 | 1 of 18 |
| IISGSMLMESRNKSSVA | NAETREY | QHYDRLPLS | 6.4 µM | 3 of 6 | 2 of 18 |
| HSSPSYLYESRNKNSVA | NASTRES | QQYHRLPLS | no signal | 0 of 6 | 1 of 18 |
| QLFFNDFQYDIESQNIA | HASLRYV | QQYARLPLV | 16 nM | 6 of 6 | 0 of 18 |

The first 4 entries again:

| CDR-L1 | CDR-L2 | CDR-L3 | Kd | detected | signal with controls |
|---|---|---|---|---|---|
| TISQMSTLFSQTINNVA | EVSTREQ | QQYDRLPLV | 70 nM | 4 of 6 | 1 of 18 |
| KYSQSVLYESNNKNSVA | WASTRES | QQYDRLALS | no signal | 0 of 6 | 0 of 18 |
| TISMHTSLFSQTINNVA | EVSTREQ | QQYDRLPLT | 1.3 nM | 6 of 6 | 1 of 18 |
| KSSHSVKYESRNKNSVA | WASTRES | QQYARLHLS | no signal | 0 of 6 | 0 of 18 |

Of ten entries with the parent sequence, four were seen in most replicates (averages 2.2 nM to 240 nM), three in one and three in none, so single entries are noisy.
As a blank, each scFv also met three strains without target: over all light chain designs, 4% of these pairings were detected, typically at 430 nM and seldom below 38 nM. Also given: how often the same scFv was detected with the empty control strains.
The authors averaged sequences with at least three values out of six and counted those with two or fewer as poor binders.
A sequence measured in both rounds can read differently, since the two assays cover different ranges.

Data: MIT Lincoln Laboratory AlphaSeq set, Li et al. 2023, doi:10.1038/s41467-023-39022-2, as distributed in FLAb.